The values that follow are results of earlier work, collected in publication PMC11659931.

One may read the Kd as the constant that tells how readily two partners part at equilibrium.

For the data set, the target named is IgE (Homo sapiens) (UniProt P01854).

Regarding omalizumab Fab, the equilibrium dissociation constant (Kd) was 15 nM.
